Molecular target: SAMHD1_(115-626) WT (HD domain construct of human SAMHD1) (human) (UniProt Q9Y3Z3)

rate of dTTP hydrolysis (NMR-based dNTPase assay, 1 mM dTTP, 1 μM SAMHD1) against GTP concentration, from no GTP to above 20 μM; apparent half-rise at 1.5 μM GTP: > 1 s⁻¹
Substance: SAMHD1_(115-626) WT (HD domain construct of human SAMHD1) (from UniProt Q9Y3Z3 115-626) (domain or fragment)

Reference: PMC4980677
